The conditions of this data set: rabbit.
Where [1] appears, read: 2.1 μg/milliliter intravaginal daily for 10 days.
Setting [2] is: 4200 μg/milliliter intravaginal daily for 10 days.

We go through one substance from patent US8198321B2, “Anti-microorganism terpenic composition” (priority 2006, dated 2012).

Read-outs that look alike come from different tables or passages of the source.

Turning to “zinc ascorbo-camphorate [Third preparation]”, the “edema (histopathology)” value is recorded as “no edema was observed” under setting [1] and “no edema was observed” under setting [2]. Moreover, the “vaginal epithelium (histopathology)” value runs as follows: under setting [1], “remained entirely intact”; under setting [2], “remained entirely intact”. In addition, the vaginal irritation entry was ““minimal” vaginal irritation” (1 ml of 2.1 μg/milliliter intravaginal daily for 10 consecutive days) and ““minimal” vaginal irritation” (1 ml of 4200 μg/milliliter intravaginal daily for 10 consecutive days).
